The experiment addresses recombinant human CL receptor/RAMP1 (Homo sapiens (Human), UniProt O60894+Q16602). The experiment in a line: Recombinant receptor binding assay (125I-hCGRP). The conditions noted are these: membranes of HEK 293 cells expressing human CL receptor/RAMP1, 10 pM 125I-hCGRP. Here is the method: RECOMBINANT RECEPTOR: Human CL receptor (Genbank accession number L76380) was subcloned into the expression vector pIREShyg2 (BD Biosciences Clontech) as a 5′NheI and 3′ PmeI fragment. Human RAMP 1 (Genbank accession number AJ001014) was subcloned into the expression vector pIRESpuro2 (BD Biosciences Clontech) as a 5′NheI and 3′NotI fragment. HEK 293 cells (human embryonic kidney cells; ATCC #CRL-1573) were cultured in DMEM with 4.5 g/L glucose, 1 mM sodium pyruvate and 2 mM glutamine supplemented with 10% fetal bovine serum (FBS), 100 units/mL penicillin and 100 μg/mL streptomycin, and maintained at 37° C. and 95% humidity. Cells were subcultured by treatment with 0.25% trypsin with 0.1% EDTA in HBSS. Stable cell line generation was accomplished by co-transfecting 10 μg of DNA with 30 μg Lipofectamine 2000 (Invitrogen) in 75 cm^2 flasks. CL receptor and RAMP1 expression constructs were co-transfected in equal amounts. Twenty-four hours after transfection the cells were diluted and selective medium (growth medium+300 μg/mL hygromycin and 1 μg/mL puromycin) was added the following day. A clonal cell line was generated by single cell deposition utilizing a FACS Vantage SE (Becton Dickinson). Growth medium was adjusted to 150 μg/mL hygromycin and 0.5 μg/mL puromycin for cell propagation.
RECOMBINANT RECEPTOR BINDING ASSAY: Cells expressing recombinant human CL receptor/RAMP1 were washed with PBS and harvested in harvest buffer containing 50 mM HEPES, 1 mM EDTA and Complete protease inhibitors (Roche). The cell suspension was disrupted with a laboratory homogenizer and centrifuged at 48,000 g to isolate membranes. The pellets were resuspended in harvest buffer plus 250 mM sucrose and stored at −70° C. For binding assays, 20 μg of membranes were incubated in 1 ml binding buffer (10 mM HEPES, pH 7.4, 5 mM MgCl2, and 0.2% BSA) for 3 hours at room temperature containing 10 pM ^125I-hCGRP (GE Healthcare) and antagonist. The assay was terminated by filtration through 96-well GFB glass fiber filter plates (PerkinElmer) that had been blocked with 0.05% polyethyleneimine. The filters were washed 3 times with ice-cold assay buffer (10 mM HEPES, pH 7.4 and 5 mM MgCl2). Scintillation fluid was added and the plates were counted on a Topeount (Packard). Non-specific binding was determined and the data analysis was carried out with the apparent dissociation constant (Ki) determined by using a non-linear least squares fitting the bound CPM data to the equation below:
[formula] Where Y is observed CPM bound, Ymax is total bound counts, Ymin is non specific bound counts, (Ymax−Ymin) is specific bound counts, % Imax is the maximum percent inhibition, % I min is the minimum percent inhibition, radiolabel is the probe, and the Kd is the apparent dissociation constant for the radioligand for the receptor as determined by Hot saturation experiments.

Chains of the proteins cited; added tags and fusions are not shown. Residues count along the entry.
UniProt O60894, 27-148 limits assumed: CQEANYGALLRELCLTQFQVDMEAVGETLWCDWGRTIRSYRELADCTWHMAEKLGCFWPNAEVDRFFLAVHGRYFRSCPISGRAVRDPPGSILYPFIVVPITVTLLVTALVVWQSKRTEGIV
UniProt Q16602, 23-461 limits assumed: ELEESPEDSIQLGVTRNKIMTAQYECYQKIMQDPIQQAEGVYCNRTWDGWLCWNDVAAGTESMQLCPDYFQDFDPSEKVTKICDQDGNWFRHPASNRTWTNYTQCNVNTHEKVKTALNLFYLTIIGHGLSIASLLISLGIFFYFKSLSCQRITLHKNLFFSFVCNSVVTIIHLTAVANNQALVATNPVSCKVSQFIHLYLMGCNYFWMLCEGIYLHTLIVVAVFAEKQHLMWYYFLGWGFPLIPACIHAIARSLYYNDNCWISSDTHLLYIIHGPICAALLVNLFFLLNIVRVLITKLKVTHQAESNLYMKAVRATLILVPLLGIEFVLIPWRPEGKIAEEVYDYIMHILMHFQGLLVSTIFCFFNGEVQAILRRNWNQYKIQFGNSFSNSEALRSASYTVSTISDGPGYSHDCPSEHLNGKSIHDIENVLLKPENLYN

pKi: −log10 of the molar value. Values joined by “and” are separate entries in the source; they are usually repeats but may differ in a detail not shown here. Identical values can stand only once.

In general, pKi refers to the negative decadic logarithm of the Ki, by convention in mol/L.

For `CN1C(=O)NC(=O)C12Cc1cc3ccc(CN4CCC(Cn5ccnc5)CC4)nc3cc1C2` (stereo not drawn), the pKi (tested form: TFA) was 7.07.

As for `CN1C(=O)NC(=O)C12Cc1cc3ccc(CN4CCC(Cc5ccccc5)CC4)nc3cc1C2` (racemic) [Example 7, (±)-2-[(4-Benzylpiperidin-1-yl)methyl]-3′-methyl-6,8-dihydro-2′H,5′H-spiro[cyclopenta[g]quinoline-7,4′-imidazolidine]-2′,5′-dione], under “tested form: TFA”, the pKi is 5.96.

For the compound `O=C1COc2ccccc2N1Cc1ccc2cc3c(cc2n1)CC1(C3)C(=O)Nc2ncccc21` (stereo not drawn), the negative-log Ki (pKi) is 8.38 and 8.54.

Consider `O=C(c1ccc2cc3c(cc2n1)CC1(C3)C(=O)Nc2ncccc21)N1CCC2(CC1)OCc1ccccc12` (stereo not drawn), for which the negative logarithm of the Ki (pKi) was 5.13.

Consider `O=C1C(c2ccc(F)cc2)NCCN1Cc1ccc2cc3c(cc2n1)CC1(C3)C(=O)Nc2ncccc21` (stereo not drawn), for which the pKi was 8.74.

In the case of `CC(C)[C@H]1CN(C)CCN1Cc1ccc2cc3c(cc2n1)CC1(C3)C(=O)NC(=O)N1C` (stereo partly drawn), the pKi (tested form: TFA) is 5.77.

The values above are taken from patent US8778957B2, “CGRP receptor antagonists” (Merck Sharp & Dohme Corp., priority 2009, dated 2014).
